Key:
Assay in all cases: MBP-SSX1 78aa pull-down of HEK293T mononucleosomes, targeted quantitative histone MS, replicate 2
[1] = target: HEK-293T mononucleosomes with histone H4(4to17)K5ac1K8ac1me0 (mammalian (HEK-293T cells)) (UniProt P62805)
[2] = target: HEK-293T mononucleosomes with histone H4(4to17)K12ac1K16ac1me0 (mammalian (HEK-293T cells)) (UniProt P62805)
[3] = target: HEK-293T mononucleosomes with histone H4(4to17)K5ac1K8ac1K12ac1me0 (mammalian (HEK-293T cells)) (UniProt P62805)
[4] = target: HEK-293T mononucleosomes with histone H2A(4to11)K5ac1K9ac1 (mammalian (HEK-293T cells)) (UniProt P0C0S8)
[5] = target: HEK-293T mononucleosomes with histone H4(20to23)K20me3 (mammalian (HEK-293T cells)) (UniProt P62805)
[6] = target: HEK-293T mononucleosomes with histone H4(20to23)K20me2 (mammalian (HEK-293T cells)) (UniProt P62805)
[7] = target: HEK-293T mononucleosomes with histone H3K4me2 (mammalian (HEK-293T cells)) (UniProt P68431)
[8] = target: HEK-293T mononucleosomes with histone H3K4ac1 (mammalian (HEK-293T cells)) (UniProt P68431)
[9] = target: HEK-293T mononucleosomes with histone H3K4me0 (mammalian (HEK-293T cells)) (UniProt P68431)
[10] = target: HEK-293T mononucleosomes with histone H4(4to17)K5ac1K8ac1K16ac1me0 (mammalian (HEK-293T cells)) (UniProt P62805)
[11] = target: HEK-293T mononucleosomes with histone H4(4to17)K12ac1me0 (mammalian (HEK-293T cells)) (UniProt P62805)
[12] = target: HEK-293T mononucleosomes with histone H4(20to23)K20me0 (mammalian (HEK-293T cells)) (UniProt P62805)
[13] = target: HEK-293T mononucleosomes with histone H4(4to17)K8ac1K12ac1K16ac1me0 (mammalian (HEK-293T cells)) (UniProt P62805)
[14] = target: HEK-293T mononucleosomes with histone H4(4to17)ac0me0 (mammalian (HEK-293T cells)) (UniProt P62805)
[15] = target: HEK-293T mononucleosomes with histone H4(4to17)K5ac1K8ac1K12ac1K16ac1me0 (mammalian (HEK-293T cells)) (UniProt P62805)
[16] = target: HEK-293T mononucleosomes with histone H4(4to17)K8ac1K12ac1me0 (mammalian (HEK-293T cells)) (UniProt P62805)
[17] = target: HEK-293T mononucleosomes with histone H4(20to23)K20me1 (mammalian (HEK-293T cells)) (UniProt P62805)
[18] = target: HEK-293T mononucleosomes with histone H3K4me3 (mammalian (HEK-293T cells)) (UniProt P68431)
[19] = target: HEK-293T mononucleosomes with histone H4(4to17)K5ac1me0 (mammalian (HEK-293T cells)) (UniProt P62805)
[20] = target: HEK-293T mononucleosomes with histone H3K9me2S10ph1K14ac0 (mammalian (HEK-293T cells)) (UniProt P68431)
[21] = target: HEK-293T mononucleosomes with histone H2AZ(1to19)ac0 (mammalian (HEK-293T cells)) (UniProt P0C0S5)
[22] = target: HEK-293T mononucleosomes with histone H3K4me1 (mammalian (HEK-293T cells)) (UniProt P68431)

A log2 (Light/Heavy) ratio normalized to average of pull down input controls [1] of -0.448 log2, a log2 (Light/Heavy) ratio normalized to average of pull down input controls [2] of -0.105 log2 and a log2 (Light/Heavy) ratio normalized to average of pull down input controls [3] of -0.387 log2 were found for “MBP-SSX1 (78aa) (from UniProt P0AEX9 27-392)” in this work. For the same substance, the log2 (Light/Heavy) ratio normalized to average of pull down input controls [4] was 0.032 log2, the log2 (Light/Heavy) ratio normalized to average of pull down input controls [5] was -0.131 log2 and the log2 (Light/Heavy) ratio normalized to average of pull down input controls [6] was 0.047 log2. It also gave a log2 (Light/Heavy) ratio normalized to average of pull down input controls [7] of -0.348 log2, a log2 (Light/Heavy) ratio normalized to average of pull down input controls [8] of -0.255 log2 and a log2 (Light/Heavy) ratio normalized to average of pull down input controls [9] of 0.304 log2. The log2 (Light/Heavy) ratio normalized to average of pull down input controls [10] was -0.537 log2, the log2 (Light/Heavy) ratio normalized to average of pull down input controls [11] was -0.225 log2 and the log2 (Light/Heavy) ratio normalized to average of pull down input controls [12] was 0.14 log2. It also gave a log2 (Light/Heavy) ratio normalized to average of pull down input controls [13] of -0.309 log2, a log2 (Light/Heavy) ratio normalized to average of pull down input controls [14] of 0.243 log2 and a log2 (Light/Heavy) ratio normalized to average of pull down input controls [15] of -0.629 log2. It also gave a log2 (Light/Heavy) ratio normalized to average of pull down input controls [16] of -0.143 log2, a log2 (Light/Heavy) ratio normalized to average of pull down input controls [17] of 0.195 log2 and a log2 (Light/Heavy) ratio normalized to average of pull down input controls [18] of -0.511 log2. For the same substance, the log2 (Light/Heavy) ratio normalized to average of pull down input controls [19] was -0.162 log2, the log2 (Light/Heavy) ratio normalized to average of pull down input controls [20] was 0.892 log2 and the log2 (Light/Heavy) ratio normalized to average of pull down input controls [21] was -0.608 log2. For the same substance, the log2 (Light/Heavy) ratio normalized to average of pull down input controls [22] was -0.097 log2.

— patent US20250283871A1, “COMPOSITIONS AND METHODS FOR MODULATING THE INTERACTION BETWEEN SS18-SSX FUSION ONCOPROTEIN AND NUCLEOSOMES” (Dana-Farber Cancer Institute, Inc., priority 2020, published 2025)
